Laboratory results reported in patent publication US20070219159A1, “CYCLODEXTRIN COMPOSITIONS AND METHODS OF TREATING VIRAL INFECTIONS” (priority 2002, published 2007).

Assays:
HSV-1 = conditions: in general 1000-fold less drug than Examples 1-6 and 10
HSV-2 = conditions: in general 1000-fold less drug than Examples 1-6 and 10

Row | SMILES | SI = CC50/EC50 (Flu B) | SI = CC50/EC50 (HSV-1) | SI = CC50/EC50 (HHV-7) | SI = CC50/EC50 (PIV) | SI = CC50/EC50 (Pichinde) | SI = CC50/EC50 (HHV-6) | SI = CC50/EC50 (Flu A) | SI = CC50/EC50 (RSV) | SI = CC50/EC50 (EBV) | SI = CC50/EC50 (Ad) | SI = CC50/EC50 (HCMV) | SI = CC50/EC50 (HRV) | SI = CC50/EC50 (Rhino) | SI = CC50/EC50 (MCMV) | SI = CC50/EC50 (VZV) | SI = CC50/EC50 (Measles) | SI = CC50/EC50 (Punta Toro) | SI = CC50/EC50 (HSV-2) | SI = CC50/EC50 (Resp syncytial)
1 | OC[C@H]1O[C@@H]2O[C@H]3[C@H](O)[C@@H](O)[C@@H](O[C@H]4[C@H](O)[C@@H](O)[C@@H](O[C@H]5[C@H](O)[C@@H](O)[C@@H](O[C@H]6[C@H](O)[C@@H](O)[C@@H](O[C@H]7[C@H](O)[C@@H](O)[C@@H](O[C@H]8[C@H](O)[C@@H](O)[C@@H](O[C@H]1[C@H](O)[C@H]2O)O[C@@H]8CO)O[C@@H]7CO)O[C@@H]6CO)O[C@@H]5CO)O[C@@H]4CO)O[C@@H]3CO [BCD, β-cyclodextrin] | 0 | 0 | 0 | 0 | 0 | 0 | 0 | 0 | 0 | 0 | 0 | 0 | 0 | 0 | 0 | 0 | 0 | 0 | 0
2 | CC(O)COC[C@H]1O[C@@H]2O[C@H]3[C@H](O)[C@@H](O)[C@@H](O[C@H]4[C@H](O)[C@@H](O)[C@@H](O[C@H]5[C@H](O)[C@@H](O)[C@@H](O[C@H]6[C@H](O)[C@@H](O)[C@@H](O[C@H]7[C@H](O)[C@@H](O)[C@@H](O[C@H]8[C@H](O)[C@@H](O)[C@@H](O[C@H]1[C@H](O)[C@H]2O)O[C@@H]8COCC(C)O)O[C@@H]7COCC(C)O)O[C@@H]6COCC(C)O)O[C@@H]5COCC(C)O)O[C@@H]4COCC(C)O)O[C@@H]3COCC(C)O (stereo partly drawn) [HPBCD, hydroxypropyl β-cyclodextrin] |  |  |  |  |  |  |  |  | > 625 |  |  |  |  |  |  |  |  |  | 
